Assay: Solubility of DBAB at various weight ratios of HP-β-CD and γ-CD, total CD 0.5%
Conditions: 0.2% by weight of each of HP-β-CD and γ-CD, test method of Table 5

Substance: hydroxypropyl-γ-cyclodextrin [HPγ]
- effect on solubility of DBAB of adding 0.1% by weight of a further cyclodextrin: did not improve the solubility
